Measured values as given in patent US5696239A, “Conjugates possessing ortho ligating functionality and complexes thereof” (The Dow Chemical Company, priority 1995, dated 1997).

Test: Percent complex determination, samarium complexes (Sephadex C-25 cation exchange)
Assay type: physicochemical
Description: A disposable 10 ml plastic (Biorad) column was filled with 1 to 2 ml of water-swelled Sephadex™ C-25 cation exchange resin. The water was pressure eluted to the top of the resin. Fifteen μl of the complex (or more if counts were low) were added to the top of the resin. This was followed by 2 ml of 4:1 (V:V) isotonic saline:conc. ammonium hydroxide solution as an eluent which was allowed to drip into a counting tube. This was also pressure eluted to the top of the resin. An additional 2 ml of the eluent were added and the column pressure eluted to remove all liquid. The dried resin was then placed in a third counting tube and the three tubes counted on a NaI well counter using a Canberra multichannel analyzer linked to a computer. The percent complex was determined by dividing the number of counts in the two elutions by the total counts in the elutions plus the column, all times 100.
Percent complex determination was made in the same manner as for the yttrium complex.

## 2,6-BIS{[(2-{[BIS(CARBOXYMETHYL)]AMINO}ETHYL)(CARBOXYMETHYL)]AMINOMETHYL}- 4-(AMINO)PHENOL, SAMARIUM COMPLEX [Example XX]
After purification by anion exchange chromatography
  percent complex, Sm: 95%
As prepared, pH 7, before purification
  percent complex, Sm: 68%
